Test results from publication PMC7948648 (The Journal of Biological Chemistry, 2021).

Molecular target: T1, ART domain of TNKS1 (residues 1104–1314) (Homo sapiens, UniProt O95271)
T1 construct: biotinylated TNKS1 protein (amino acids: 1104–1314); hexahistidine (N, cleaved yes); made in house; host or cells: Escherichia coli BL21(DE3)
T1 sequence (O95271 1104-1314): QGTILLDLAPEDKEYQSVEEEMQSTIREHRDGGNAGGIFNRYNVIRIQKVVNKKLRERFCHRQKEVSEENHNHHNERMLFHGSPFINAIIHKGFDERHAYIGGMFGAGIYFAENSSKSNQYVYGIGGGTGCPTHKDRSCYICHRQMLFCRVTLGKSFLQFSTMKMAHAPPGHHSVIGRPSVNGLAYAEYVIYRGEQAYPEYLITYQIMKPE
Assay: SPR binding kinetics to TNKS1 ART domain
Conditions: 150 mM NaCl, pH 7.4, 25 °C, read-out: TNKS1 Kin. KD

- Kd: 34.8 µM
Compound: NC(=O)c1cccc2cn(-c3ccc([C@@H]4CCCNC4)cc3)nc12 [Niraparib, niraparib]
